# Assay results reported in patent US20080026088A1, “Reduced isoalpha acid based protein kinase modulation cancer treatment” (Metaproteomics, LLC, priority 2006, published 2008).
# Marks after values point to notes of the source that are not given here.
# Test: Non-fasting serum glucose and insulin in KK-Ay diabetic mice
# Format: in vivo, mouse
# Conditions: 1.0 mg/kg-day by gavage, once daily for three days
smiles,measurement,setting,value
CN(CCOc1ccc(CC2SC(=O)NC2=O)cc1)c1ccccn1 (centres unmarked) [rosiglitazone],Insulin (non-fasting serum),control 93.3 (critical value 85.4),88.7 % Pretreatment
same,Glucose (non-fasting serum),control 102.6 (critical value 98.7),80.3# % Pretreatment
